{"source": "patent US20180250404A1", "about": "“HIGH-Z NANOPARTICLES AND THE USE THEREOF IN RADIATION THERAPY” (Board of Regents, The University of Texas System, priority 2015, published 2018)", "system": "HCT116 xenografts", "assay": "Tumor regrowth delay of HCT116 xenografts with radiation", "format": "in vivo, nu/nu mice", "details": "10 Gy, 250 kVp", "experimental": "FIGS. 2A-2B: cGNR enhances biological effectiveness of radiation in vivo. (A) Biodistribution of pGNR and cGNR, represented as % injected dose (ID), in different organs of mice, at 24 hr post-injection time (i.v, 1 mg/kg). […] The data points represent the mean±SE of four different experiments. […] Each data point represents the mean±SE of five animals.\nFIG. 9: Tumor regrowth delay of HCT116 xenografts treated with radiation (10 Gy, 6 MV, 1.5 cm bolus over tumors) 24 hrs following intravenous administration of cGNRs; pGNRs; non-specific antibody conjugated GNRs (iGNRs); or pGNRs and an equivalent concentration of cetuximab (C225).\nThe therapeutic efficacy of cGNR radiosensitization was assessed by tumor doubling time and animal survival.", "data": [{"substance": "Cetuximab: monoclonal antibody targeting the epidermal growth factor receptor (EGFR)", "values": [{"measurement": "tumor volume doubling time / tumor growth delay", "result": "did not prolong the tumor growth delay"}]}]}
